Test results published in patent publication US5084142A, “Separation of tertiary butyl alcohol from water by azeotropic or extractive distillation” (priority 1991, dated 1992).

Test: Extractive agents evaluated in vapor-liquid equilibrium still (separating water from t-butanol)
Assay type: physicochemical
Conditions: extractive agent

Row | Relative Volatility (water as overhead) | Relative Volatility (brings t-butanol out as overhead (*)) | Substance
1 | 1.32 | – | 2-Hydroxyacetophenone
2 | – | 1.32 | Dipropylene glycol
